Target: Alpha-1B adrenergic receptor (Homo sapiens, UniProt P35368)
Test: In vitro binding affinity at human Alpha-1B adrenergic receptor.
In short: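 Human α1A-, α1B- or α1D-AR stably expressed in HEK293 cells (calcium phosphate transfection, subclones chosen for high expression); membranes from scraped, homogenized cells spun at 30000g. Three experiments in duplicate, mean ± SE.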

Chains of the proteins cited; added tags and fusions are not shown.
UniProt P35368, whole entry: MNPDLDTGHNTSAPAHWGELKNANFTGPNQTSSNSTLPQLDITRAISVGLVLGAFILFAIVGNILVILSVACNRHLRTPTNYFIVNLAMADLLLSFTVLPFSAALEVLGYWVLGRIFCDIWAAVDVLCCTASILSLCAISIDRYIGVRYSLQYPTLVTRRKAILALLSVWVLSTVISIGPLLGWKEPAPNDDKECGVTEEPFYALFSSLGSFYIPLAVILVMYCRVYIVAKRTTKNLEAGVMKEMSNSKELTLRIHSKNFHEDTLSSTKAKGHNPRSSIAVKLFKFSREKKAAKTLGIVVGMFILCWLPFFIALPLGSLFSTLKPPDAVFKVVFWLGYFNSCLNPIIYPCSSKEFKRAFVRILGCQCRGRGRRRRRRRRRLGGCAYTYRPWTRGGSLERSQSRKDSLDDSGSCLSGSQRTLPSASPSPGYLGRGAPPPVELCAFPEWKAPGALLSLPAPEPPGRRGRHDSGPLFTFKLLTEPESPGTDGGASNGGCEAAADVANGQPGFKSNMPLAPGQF

- Ki: 191 nM
Compound: C[C@H](CN1CCN(c2cc(F)c(F)cc2F)CC1)N1C(=O)CC2(CCCC2)CC1=O

Reference: ChEMBL document CHEMBL1145826, “New pyrimido[5,4-b]indoles as ligands for alpha(1)-adrenoceptor subtypes” (J Med Chem, 2003)
